# In patent publication US20120238549A1, “Nuclear Hormone Receptor Modulators” (ABBOTT LABORATORIES, priority 2011, published 2012):
# Amino acid sequences for entries named in this document (tags omitted).
# UniProt P04150, whole entry: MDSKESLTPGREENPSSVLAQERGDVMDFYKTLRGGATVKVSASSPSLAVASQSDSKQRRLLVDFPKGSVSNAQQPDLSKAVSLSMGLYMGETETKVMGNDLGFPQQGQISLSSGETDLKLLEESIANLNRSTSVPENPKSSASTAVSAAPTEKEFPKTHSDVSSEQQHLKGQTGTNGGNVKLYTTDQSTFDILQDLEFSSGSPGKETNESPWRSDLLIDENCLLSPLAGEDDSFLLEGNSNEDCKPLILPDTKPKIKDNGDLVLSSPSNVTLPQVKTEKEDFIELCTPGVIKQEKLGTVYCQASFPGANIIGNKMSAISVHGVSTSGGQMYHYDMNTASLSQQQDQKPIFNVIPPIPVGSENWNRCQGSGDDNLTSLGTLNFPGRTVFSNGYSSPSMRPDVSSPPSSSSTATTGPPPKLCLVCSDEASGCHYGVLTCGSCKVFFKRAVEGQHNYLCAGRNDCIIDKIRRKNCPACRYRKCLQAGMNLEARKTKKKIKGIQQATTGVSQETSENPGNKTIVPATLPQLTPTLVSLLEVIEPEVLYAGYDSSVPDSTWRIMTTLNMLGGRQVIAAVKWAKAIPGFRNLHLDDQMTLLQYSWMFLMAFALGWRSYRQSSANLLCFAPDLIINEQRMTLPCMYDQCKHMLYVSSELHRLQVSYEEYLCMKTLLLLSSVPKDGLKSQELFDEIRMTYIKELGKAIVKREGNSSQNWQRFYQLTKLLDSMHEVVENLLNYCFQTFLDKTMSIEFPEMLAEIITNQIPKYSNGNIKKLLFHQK
# Biological target: Glucocorticoid Receptor (GR) (Homo sapiens, UniProt P04150)
# Experiment: GR Florescence Polarization Assay (PolarScreen Glucocorticoid Receptor Competitor Assay, Red)
# Settings: read-out: GR binding; Fluorescense polarization binding ranges; competition with fluorescent glucocorticoid, incubated overnight at 4° C.
# Protocol: GR Florescence Polarization Assay Florescence polarization assays were carried out using the PolarScreen™ Glucocorticoid Receptor Competitor Assay, Red from Invitrogen (P2893). The assay buffer was prepared according to the manufacturer's protocol and used to dilute the fluorescent glucocorticoid and GR. Compounds were prepared and serial diluted 1:4 in DMSO. Compound, fluorescent glucocorticoid and GR were added in a final volume of 20 μL and incubated overnight at 4° C. Fluorescent polarization was measured on the Perkinelmer Envision®.
row,SMILES,IC50 [nM]
1,CCOC[C@@]1(O)CC[C@@]2(CC)c3ccc(C(=O)Nc4cccnc4C)cc3CCC[C@H]2C1 (relative stereo),< 100
2,Cn1nccc1NC(=O)c1ccc2c(c1)CCC[C@@H]1C[C@@](O)(C(F)(F)F)CC[C@@]21Cc1ccccc1,< 100
3,CC[C@]1(O)CC[C@]2(Cc3ccccc3)c3ccc(C(=O)Nc4cnc(C)nc4C)cc3CCC[C@@H]2C1,100 to 1000
4,Cn1nccc1NC(=O)c1ccc2c(c1)CCC[C@H]1C[C@](O)(C(F)(F)F)CC[C@]21Cc1ccccc1,100 to 1000
5,CC[C@]1(O)CC[C@]2(Cc3ccccc3)c3ccc(C(=O)Nc4cccnc4C)cc3C=CC[C@@H]2C1,100 to 1000
6,Cc1cnccc1NC(=O)c1ccc2c(c1)CCC[C@@H]1C[C@@](O)(C(F)(F)F)CC[C@@]21Cc1ccccc1,< 100
7,CC[C@]12CC[C@@](O)(CC(C)C)C[C@H]1CCOc1cc(C(=O)Nc3cccnc3C)ccc12,100 to 1000
8,CC[C@@]1(O)CC[C@@]2(Cc3ccccc3)c3ccc(C(=O)Nc4cccnc4C)cc3C=CC[C@H]2C1,< 100
9,CC[C@@]12CC[C@](O)(CC(C)C)C[C@@H]1CCOc1cc(C(=O)Nc3cccnc3C)ccc12 (relative stereo),< 100
10,CC[C@@]12CC[C@](O)(CC(C)C)C[C@@H]1CCOc1cc(C(=O)Nc3cccnc3C)ccc12,< 100

# The next lines start with the values.
row,IC50 [nM],SMILES
1,< 100,CC[C@@]12CC[C@](O)(CC3CC3)C[C@@H]1CCOc1cc(C(=O)Nc3cccnc3C)ccc12
2,< 100,CC[C@@]12CC[C@](O)(CC3CC3)C[C@@H]1CCOc1cc(C(=O)Nc3cccnc3C)ccc12 (relative stereo)
3,< 100,CCC[C@@]1(O)CC[C@@]2(CC(F)(F)F)c3ccc(C(=O)Nc4cccnc4C)cc3CCC[C@H]2C1 (racemic) [Example 52]
4,< 100,CC[C@]12CC[C@@](O)(CC3CC3)C[C@H]1CCOc1cc(C(=O)Nc3cccnc3C)ccc12
5,< 100,CCC[C@]1(O)CC[C@]2(CC(F)(F)F)c3ccc(C(=O)Nc4cccnc4C)cc3CCC[C@@H]2C1
6,100 to 1000,CCOC[C@]1(O)CC[C@]2(Cc3ccccc3)c3ccc(C(=O)Nc4cccnc4C)cc3CCC[C@@H]2C1
7,< 100,CC[C@@]12CC[C@](O)(CC(C)C)C[C@@H]1COCc1cc(C(=O)Nc3cccnc3C)ccc12
